# Reference: ChEMBL document CHEMBL5728069, “Benzenesulfonamide compounds and their use as therapeutic agents” (2020)
# Assays:
# [1] = In Vitro Assay: In general, Trex HEK293 cells were stably transfected with an inducible expression vector containing the full-length cDNA coding for the desired human sodium channel α-subunit and with an expression vector containing full length cDNA coding for the β1-subunit. Sodium channel expressing cell lines were induced with tetracycline (1 μg/mL) and plated on 384-well PDL-coated plates at …
# cells = settings: HEK293
IC50 [1],Structure (SMILES),IC50 (cells)
13 µM,CNc1c(F)c(S(=O)(=O)Nc2cscn2)cc(C)c1[C@@H]1CCN(Cc2ccccc2O)C1,–
–,Cc1cccc(CN2CC[C@H](Oc3ccc(S(=O)(=O)Nc4nccs4)cc3Cl)[C@H](C)C2)c1 (relative stereo),6.24 µM
